# scFv variants of Ab-14 (heavy chain) against a SARS-CoV-2 spike peptide

The target is the same throughout: PDVDLGDISGINAS, from the HR2 region of SARS-CoV-2 spike.

The variants keep the light chain, the linker and the frameworks of Ab-14 (scFv order VH, the linker GGGGSGGGGSGGGGS, VL).
VH: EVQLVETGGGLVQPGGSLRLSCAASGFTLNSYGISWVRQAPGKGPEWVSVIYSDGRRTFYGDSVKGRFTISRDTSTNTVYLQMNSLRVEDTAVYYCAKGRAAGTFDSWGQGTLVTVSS
VL: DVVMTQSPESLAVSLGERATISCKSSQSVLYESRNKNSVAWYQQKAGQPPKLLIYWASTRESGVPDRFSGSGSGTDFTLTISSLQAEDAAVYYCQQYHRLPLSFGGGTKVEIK

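Phage display of a naive human antibody library on the peptide gave the parent. This is the validation round: designs drawn from the data on random variants, tested in the same kind of assay. Their group label is 14H_En_HC (En: ensemble of fine-tuned language models; HC: hill climbing; a sequence that several methods proposed may carry one label only). The scFvs were displayed on barcoded MATa yeast, the peptide on MATalpha yeast. Pairs that bind mate more often; barcode pairs of the diploids are counted by sequencing. Read counts were normalised to the haploid input and turned into Kd by a linear fit to BCL2-family pairs of known affinity, for each replicate. There are six technical replicates.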

The parent's heavy chain CDRs are GFTLNSYGIS, VIYSDGRRTFYGDSVK, GRAAGTFDS; each variant's own CDRs replace them letter for letter. The read-out is the apparent dissociation constant on a log10 scale (nM): the lower, the stronger. A pair that was not seen in that replicate is written "ND"; this usually means weak binding, but a binder can also be missed. The authors' rule: three or more of the six replicates give a measured affinity, fewer mean a poor binder. A sequence measured in both rounds can read differently, since the two assays cover different ranges. Three control strains display no target. For all heavy chain designs, 1% of the pairings with them gave a signal, with a median of 2.08 and one signal in twenty below 0.84, so weak values seen in few replicates may be background. For each scFv, signals with the empty controls are counted beside the result, with their mean in brackets.

| CDR-H1 | CDR-H2 | CDR-H3 | log10 Kd (nM) by replicate | control signals |
|---|---|---|---|---|
| GFNLDEYGIS | VIYADGKRTFYSDNVK | GEAAGTFDI | 0.01 / -0.44 / -0.19 / -0.44 / -0.41 / -0.17 | 0 of 18 |
| GFDLNEYGIS | VIYADGKRTFYSDKVK | GNVAGTFDV | -0.21 / -0.37 / -0.42 / -0.51 / -0.37 / -0.46 | 1 of 18 (2.80) |
| GFDLNEYGIS | VIYADGRRTFYADSVK | GNQAGTFTS | 0.02 / -0.11 / -0.23 / -0.26 / -0.18 / 0.09 | 0 of 18 |
| GFDLNEYGIS | VIYADGVRTFYSDSVK | GNVAGTFDK | -0.31 / -0.94 / -0.87 / -0.66 / -0.56 / -0.95 | 0 of 18 |
| GFDLNEYGIS | VIYADGRRTFYADSVK | GEIAGTFQF | -0.20 / -0.42 / -0.52 / -0.35 / -0.44 / -0.32 | 0 of 18 |
| GFDLDEYGIS | VIYADGRRTFYQDSVK | GQEAGTFDQ | -0.01 / -0.13 / -0.39 / 0.11 / -0.48 / 0.21 | 0 of 18 |
| GFDLNEYGIS | VIYADGRRTAYSDSVK | GEVAGTFDS | -0.52 / -0.47 / -0.54 / -0.32 / -0.36 / -0.23 | 0 of 18 |
| GFDLNEYGIS | VIYADGRRTFYQDSVK | GEAAGTFDS | 1.19 / 0.41 / 0.59 / ND / 1.17 / 1.89 | 0 of 18 |
| GFDLNEYGIS | VIYADGMRKFYADKVK | GENAGTFNV | 0.24 / -0.20 / 0.06 / -0.50 / 0.02 / -0.07 | 0 of 18 |
| GFDLNEYGIS | VIYADGRRTAYIDSVK | GEAAGTFDI | -0.23 / -0.24 / -0.27 / -0.37 / -0.46 / -0.14 | 0 of 18 |
| GFDLNEYGIS | VIYADGRRTQYIDSVK | GETAGTFDI | -0.44 / -0.52 / -0.87 / -0.44 / -0.49 / -0.79 | 0 of 18 |
| GFKLDEYGIS | VIYADGRRTFYADSVK | GEQAGTFDI | -0.36 / 0.05 / -0.63 / -0.76 / -0.79 / -0.38 | 0 of 18 |
| GFNLDEYGIS | VIYADGRRTFYQDSVK | GEVAGTFDI | -0.50 / -0.90 / -1.10 / -1.22 / -1.10 / -0.90 | 0 of 18 |
| GFSLNEYGIS | VIYADGRRTFYTDSVK | GTNAGTFDM | -0.39 / -0.37 / -0.37 / -0.52 / -0.62 / 0.86 | 0 of 18 |
| GFDLNEYGIS | VIYADGVRTAYTDSVK | GTNAGTFDM | -0.50 / -0.35 / -0.62 / -0.54 / -0.42 / -0.33 | 0 of 18 |
| GFDLDEYGIS | VIYADGRRTAYADSVK | GTNAGTFDS | -0.17 / -0.51 / -0.25 / -0.22 / -0.31 / 0.15 | 0 of 18 |
| GFDIDEYGIS | VIYADGKRTFYADSVK | GTNAGTFDV | -0.11 / -0.25 / -0.34 / -0.77 / -0.49 / 0.19 | 0 of 18 |
| GFDLNEYGIS | VIYADGRRTFYADSVK | GNTAGTFDS | -0.46 / -0.80 / -0.79 / -0.84 / -0.70 / -0.58 | 0 of 18 |
| GFDLNEYGIS | VIYADGRRTQYADSVK | GNVAGTFDS | 0.49 / 0.24 / 0.14 / -0.70 / -0.24 / -0.29 | 0 of 18 |
| GFDLNEYGIS | VIYADGRRTFYIDSVK | GETAGTFDS | -0.50 / -0.72 / -0.58 / -0.86 / -0.84 / -0.50 | 1 of 18 (1.76) |
| GFDLNEYGIS | VIYADGRRTAYSDSVK | GEEAGTFDF | -0.12 / -0.77 / -0.47 / -0.70 / -0.40 / -0.63 | 0 of 18 |
| GFTLDEYGIS | VIYADGRRTFYADSVK | GEQAGTFDI | -0.76 / -0.25 / -0.52 / -0.45 / -0.47 / -0.30 | 0 of 18 |
| GFDLNEYGIS | VIYADGRRTFYADSVK | GQTAGTFDL | -0.33 / -0.79 / -0.35 / -0.74 / -0.22 / -0.35 | 0 of 18 |
| GFDLNEYGIS | VIYADGRRTFYADSVK | GQAAGTFTV | -0.02 / -0.24 / 0.14 / -0.95 / -0.66 / 0.39 | 0 of 18 |
| GFDLNEYGIS | VIYADGRRTAYQDSVK | GEAAGTFDS | -0.36 / -0.06 / -0.33 / -0.15 / -0.11 / -0.34 | 0 of 18 |
| GFDLDEYGIS | VIYADGRRTFYKDSVK | GNNAGTFDM | 2.10 / 1.00 / 1.54 / 0.49 / 0.87 / 1.27 | 0 of 18 |
| GFDLNEYGIS | VIYADGRRKFYADDVK | GENAGTFNV | -0.83 / -0.92 / -0.60 / -0.83 / -0.96 / -0.53 | 0 of 18 |
| GFNLDEYGIS | VIYADGKRTFYSDNVK | GEVAGTFDI | -0.33 / -0.13 / -0.25 / -0.64 / -0.69 / -0.45 | 0 of 18 |
| GFDLNEYGIS | VIYADGIRTFYADSVK | GNTAGTFDS | 0.73 / 0.01 / -1.13 / -0.99 / -0.38 / -0.19 | 0 of 18 |
| GFDLNEYGIS | VIYADGVRTFYIDSVK | GEAAGTFDM | 0.14 / -0.17 / -0.71 / -0.73 / -0.26 / -0.49 | 0 of 18 |
| GFDLNEYGIS | VIYADGKRTFYADSVK | GESAGTFDQ | -0.58 / -0.68 / -0.73 / -0.93 / -0.46 / -0.60 | 0 of 18 |
| GFDLNEYGIS | VIYADGMRTFYADSVK | GNVAGTFFS | -0.38 / -0.36 / -0.25 / -0.13 / -0.71 / -0.39 | 0 of 18 |
| GFDLNEYGIS | VIYADGRRTFYADSVK | GQTGGTFDE | -0.19 / -0.32 / -0.62 / -0.22 / -0.36 / -0.36 | 0 of 18 |
| GFDLNEYGIS | VIYADGMRTFYTDSVK | GTNAGTFDV | -0.36 / -0.57 / -0.42 / -0.64 / -0.44 / -0.37 | 0 of 18 |
| GFDLNEYGIS | VIYADGQRTFYADSVK | GEAAGTFDQ | 0.04 / -0.12 / -0.41 / 0.26 / 0.19 / -0.06 | 0 of 18 |

Values reported by Li et al. 2023, doi:10.1038/s41467-023-39022-2 (FLAb copy).